In PMC10641813, “4-(3-Phenyl-4-(3,4,5-trimethoxybenzoyl)-1H-pyrrol-1-yl)benzenesulfonamide, a Novel Carbonic Anhydrase and Wnt/β-Catenin Signaling Pathway Dual-Targeting Inhibitor with Potent Activity against Multidrug Resistant Cancer Cells” (Journal of Medicinal Chemistry, 2023):
Where “and” joins values, the source holds several entries; their conditions need not be identical. Equal entries are not always repeated.

Protein sequences, listed by entry. Tags and fused reporters are not part of them. Lines headed by an entry give the natural chain unless they say otherwise; changes in a name come on top.
UniProt P00915: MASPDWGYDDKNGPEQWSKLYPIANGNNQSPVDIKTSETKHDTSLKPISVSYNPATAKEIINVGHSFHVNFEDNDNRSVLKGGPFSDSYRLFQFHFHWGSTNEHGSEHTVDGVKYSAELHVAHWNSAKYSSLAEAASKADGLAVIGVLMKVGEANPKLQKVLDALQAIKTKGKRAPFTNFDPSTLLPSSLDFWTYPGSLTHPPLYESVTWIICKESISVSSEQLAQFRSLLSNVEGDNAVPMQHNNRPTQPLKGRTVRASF

Experiments:
[1] = biological target: T1, hCA I (Homo sapiens, UniProt P00915); assay: Stopped flow CO2 hydrase assay, hCA I; assay type: biochemical; conditions: stopped flow technique, mean from three assays
T1 construct: made in house

[2] = biological target: T2, hCA II (Homo sapiens, UniProt P00918); assay: Stopped flow CO2 hydrase assay, hCA II; assay type: biochemical; conditions: stopped flow technique, mean from three assays
T2 construct: made in house

4-(3-(3,4,5-trimethoxybenzoyl)-1H-pyrrol-1-yl)benzenesulfonamide [Compound 11]
Ki [1]: 95.6 nM

4-(3-Phenyl-4-(3,4,5-trimethoxybenzoyl)-1H-pyrrol-1-yl)benzenesulfonamide [Compound 15]
Ki [1]: 272 nM | Ki [2]: < 50 nM and 33.6 nM

4-(3-Benzoyl-4-phenyl-1H-pyrrol-1-yl)benzenesulfonamide [Compound 14]
Ki [1]: 209 nM | Ki [2]: 72.4 nM

4-(3-Benzoyl-1H-pyrrol-1-yl)benzenesulfonamide [Compound 10]
Ki [1]: 73.1 nM | Ki [2]: 57.5 nM

4-(3-Benzoyl-1H-indol-1-yl)benzenesulfonamide [Compound 18]
Ki [1]: 328 nM | Ki [2]: < 50 nM and 41.7 nM
